Laboratory results reported in ChEMBL document CHEMBL1138837, “Structure-activity study on the Phe side chain arrangement of endomorphins using conformationally constrained analogues” (J Med Chem, 2004).

Sequences of proteins named here, by UniProt entry; tags and fusion partners are left off.
UniProt P33535, whole entry: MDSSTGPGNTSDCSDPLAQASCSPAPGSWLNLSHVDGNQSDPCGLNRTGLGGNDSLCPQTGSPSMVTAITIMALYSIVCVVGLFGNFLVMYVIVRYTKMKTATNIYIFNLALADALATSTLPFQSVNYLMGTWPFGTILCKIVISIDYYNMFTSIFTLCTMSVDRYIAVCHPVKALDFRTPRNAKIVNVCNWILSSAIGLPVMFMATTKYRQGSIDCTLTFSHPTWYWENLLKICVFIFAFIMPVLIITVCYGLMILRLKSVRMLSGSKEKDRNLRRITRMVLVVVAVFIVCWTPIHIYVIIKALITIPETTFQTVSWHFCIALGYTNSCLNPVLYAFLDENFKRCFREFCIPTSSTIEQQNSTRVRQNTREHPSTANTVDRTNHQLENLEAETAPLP
UniProt P33533, whole entry: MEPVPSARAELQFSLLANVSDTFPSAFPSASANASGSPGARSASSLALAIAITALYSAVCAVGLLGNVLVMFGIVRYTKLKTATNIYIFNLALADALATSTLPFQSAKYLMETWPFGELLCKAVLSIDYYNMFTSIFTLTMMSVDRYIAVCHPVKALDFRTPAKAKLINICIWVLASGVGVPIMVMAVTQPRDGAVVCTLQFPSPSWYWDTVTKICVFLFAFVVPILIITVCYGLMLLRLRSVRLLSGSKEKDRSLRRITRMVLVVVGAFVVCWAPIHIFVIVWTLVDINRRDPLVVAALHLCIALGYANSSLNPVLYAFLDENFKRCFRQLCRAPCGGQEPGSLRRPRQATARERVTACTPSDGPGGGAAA

Experiments:
Format in all cases: cell membranes, Membrane
[1] = target: T1, Mu-type opioid receptor (Rattus norvegicus, UniProt P33535); experiment: Displacement of [3H]DAMGO from Opioid receptor mu 1 of rat brain membranes
[2] = target: T1, Mu-type opioid receptor; experiment: Displacement of [3H]endomorphin-2 from Opioid receptor mu 1 of rat brain membranes
[3] = target: Delta-type opioid receptor (Rattus norvegicus, UniProt P33533); experiment: Displacement of [3H]Ile5,6-deltorphin II from opioid receptor delta 1 of rat brain membranes

| SMILES | Ki [1] [nM] | Ki [2] [nM] | Ki [3] [nM] |
| --- | --- | --- | --- |
| C[C@@H](c1ccccc1)[C@@H](NC(=O)[C@@H]1CCCN1C(=O)[C@@H](N)Cc1ccc(O)cc1)C(=O)N[C@@H](Cc1ccccc1)C(N)=O | 4910 | > 10000 |  |
| C[C@H](c1ccccc1)[C@H](NC(=O)[C@H](Cc1c[nH]c2ccccc12)NC(=O)[C@@H]1CCCN1C(=O)[C@@H](N)Cc1ccc(O)cc1)C(N)=O |  |  | 4630 |
| C[C@@H](c1ccccc1)[C@H](NC(=O)[C@@H]1CCCN1C(=O)[C@@H](N)Cc1ccc(O)cc1)C(=O)N[C@@H](Cc1ccccc1)C(N)=O | 45.3 | 73.1 |  |
| C[C@H](c1ccccc1)[C@H](NC(=O)[C@@H]1CCCN1C(=O)[C@@H](N)Cc1ccc(O)cc1)C(=O)N[C@@H](Cc1ccccc1)C(N)=O | 106 | 35 |  |
| C[C@@H](c1ccccc1)[C@@H](NC(=O)[C@H](Cc1c[nH]c2ccccc12)NC(=O)[C@@H]1CCCN1C(=O)[C@@H](N)Cc1ccc(O)cc1)C(N)=O |  |  | 745 |
| C[C@H](c1ccccc1)[C@@H](NC(=O)[C@H](Cc1c[nH]c2ccccc12)NC(=O)[C@@H]1CCCN1C(=O)[C@@H](N)Cc1ccc(O)cc1)C(N)=O |  |  | 1460 |
| C[C@H](c1ccccc1)[C@@H](NC(=O)[C@@H]1CCCN1C(=O)[C@@H](N)Cc1ccc(O)cc1)C(=O)N[C@@H](Cc1ccccc1)C(N)=O | 7090 | 6980 |  |
| C[C@@H](c1ccccc1)[C@H](NC(=O)[C@H](Cc1c[nH]c2ccccc12)NC(=O)[C@@H]1CCCN1C(=O)[C@@H](N)Cc1ccc(O)cc1)C(N)=O |  |  | 567 |
